By UniProt entry, the sequences of proteins in these tests, tags left out.
UniProt O14757, whole entry: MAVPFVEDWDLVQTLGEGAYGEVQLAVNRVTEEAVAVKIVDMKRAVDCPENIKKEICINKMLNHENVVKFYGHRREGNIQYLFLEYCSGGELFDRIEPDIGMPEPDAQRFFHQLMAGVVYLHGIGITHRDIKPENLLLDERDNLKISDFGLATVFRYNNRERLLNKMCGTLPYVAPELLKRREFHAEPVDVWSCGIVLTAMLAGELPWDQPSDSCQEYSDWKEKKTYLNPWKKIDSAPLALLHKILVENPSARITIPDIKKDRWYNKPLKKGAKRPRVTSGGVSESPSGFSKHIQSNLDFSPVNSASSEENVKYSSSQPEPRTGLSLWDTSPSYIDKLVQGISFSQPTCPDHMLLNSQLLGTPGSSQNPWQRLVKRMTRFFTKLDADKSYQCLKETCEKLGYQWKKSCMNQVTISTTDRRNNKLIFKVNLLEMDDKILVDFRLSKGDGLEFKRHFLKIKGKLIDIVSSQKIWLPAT

Each molecule was assayed against Full-length human CHK1 protein (Homo sapiens, UniProt O14757) (assay: Kinase HTRF Biochemical Assay (HTRF KinEASE), Chk1 enzyme activity). Details: read-out: Chk1 Enzyme Activity; ATP 1 mM; STK substrate 1-biotin 120 nM; 60 min, room temperature.
In the case of Cc1ccc(O[C@@H]2CC[C@@H](N)C2)c(-c2cc(Nc3cnc(C#N)cn3)n[nH]2)n1, the IC50 is reported as < 1 nM. Work on Cc1ccc(O[C@H]2CC[C@H](N)CC2)c(-c2cc(Nc3cnc(C#N)cn3)n[nH]2)n1 yielded an IC50 of 1 to 10 nM. CCCc1ccc(O[C@@H]2CC[C@H](N)C2)c(-c2cc(Nc3cnc(C#N)cn3)n[nH]2)n1 showed an IC50 of 1 to 10 nM. With Cc1ccc(O[C@@H]2CC[C@H](N)C2)c(-c2cc(Nc3cnc(C#N)cn3)n[nH]2)n1 the IC50 was 1 to 10 nM. Molecule N#Cc1cnc(Nc2cc(-c3nc(C(F)F)ccc3O[C@@H]3CC[C@H](N)C3)[nH]n2)cn1 has an IC50 of 1 to 10 nM. With “5-((5-(4-(((1R,3S)-3-aminocyclopentyl)oxy)pyridin-3-yl)-1H-pyrazol-3-yl)amino)pyrazine-2-carbonitrile” the IC50 was 100 to 500 nM. “5-((5-(4-(((1R,3R)-3-aminocyclopentyl)oxy)pyridin-3-yl)-1H-pyrazol-3-yl)amino)pyrazine-2-carbonitrile” gave an IC50 of 10 to 100 nM. Work on Cc1cc(O[C@@H]2CC[C@H](N)C2)c(-c2cc(Nc3cnc(C#N)cn3)n[nH]2)nc1C yielded an IC50 of 1 to 10 nM. Molecule CN[C@@H]1CC[C@@H](Oc2ccc(C)nc2-c2cc(Nc3cnc(C#N)cn3)n[nH]2)C1 has an IC50 of 1 to 10 nM. CC(C)c1ccc(O[C@@H]2CC[C@H](N)C2)c(-c2cc(Nc3cnc(C#N)cn3)n[nH]2)n1 was tested, and the IC50 was 1 to 10 nM. N#Cc1cnc(Nc2cc(-c3nc(C4CC4)ccc3O[C@@H]3CC[C@H](N)C3)[nH]n2)cn1 showed an IC50 of 1 to 10 nM. N#Cc1cnc(Nc2cc(-c3ncccc3O[C@@H]3CC[C@@H](N)C3)[nH]n2)cn1 gave an IC50 of 1 to 10 nM. Molecule “rac-5-((5-(4-((-3-aminocycloheptyl)oxy)-6-cyclopropyl-2-methoxypyridin-3-yl)-1H-pyrazol-3-yl)amino)pyrazine-2-carbonitrile” has an IC50 of 1 to 10 nM.

These molecules were tested on ecDNA+ FGFR2 amplified gastric cancer SNU-16 CDX (assay: In vivo anti-tumor activity, SNU-16 CDX model). Details: SNU-16 CDX tumors in vivo; prolonged treatment.
CCN1CCN(c2ccc(Nc3cc(N(C)C(=O)Nc4c(Cl)c(OC)cc(OC)c4Cl)ncn3)cc2)CC1 was tested, and the acquired resistance was “acquired resistance to infigratinib treatment occurred” and the “period of tumor cell stasis” value was 1-2 weeks.

What follows are molecules tested on SNU-16 tumor cells (FGFR2 copy number on ecDNA) (assay: Suppression of ecDNA amplification, prolonged treatment of SNU-16 tumor cells in vitro). Details: SNU-16 tumor cells.
With CCN1CCN(c2ccc(Nc3cc(N(C)C(=O)Nc4c(Cl)c(OC)cc(OC)c4Cl)ncn3)cc2)CC1 the “FGFR2 copy number on ecDNA” value was “increased amplification of FGFR2 (copy number) on ecDNA”.

Same assay, conditions: SNU-16 tumor cells in vitro
In the case of CCN1CCN(c2ccc(Nc3cc(N(C)C(=O)Nc4c(Cl)c(OC)cc(OC)c4Cl)ncn3)cc2)CC1, the acquired resistance is reported as “acquired resistance to infigratinib treatment occurred” and the “period of tumor cell stasis” value is reported as 1-2 weeks.

What follows are molecules tested against p-CHK1 (Ser345) in HT29 cells (Homo sapiens, UniProt O14757) (assay: AlphaLISA SureFire Ultra p-CHK1 (Ser345) cellular assay in HT29 cells). Details: read-out: AlphaLisa Cellular Activity, 16 h, 37 °C.
For COc1nc(C)cc(O[C@H]2C[C@H](N)C2)c1-c1cc(Nc2cnc(C#N)cn2)n[nH]1, the IC50 was < 50 nM. For COc1nc(C)cc(O[C@@H]2CC[C@H](N)C2)c1-c1cc(Nc2ccc(C#N)cn2)n[nH]1, the IC50 was 100 to 500 nM. With CN[C@H]1C[C@H](Oc2ccncc2-c2cc(Nc3cnc(C#N)cn3)n[nH]2)C1 the IC50 was > 1000 nM. Work on COc1nc(C2CC2)cc(O[C@@H]2CC[C@H](N)C2)c1-c1cc(Nc2ccc(C#N)nc2)n[nH]1 yielded an IC50 of 100 to 500 nM. In the case of CN[C@H]1CC[C@@H](Oc2nccc(OC)c2-c2cc(Nc3cnc(C#N)cn3)n[nH]2)C1, the IC50 is reported as < 50 nM. For COc1nc(C2CC2)cc(O[C@@H]2CC[C@H]2N)c1-c1cc(Nc2cnc(C#N)cn2)n[nH]1, the IC50 was < 50 nM. For COc1cncc(O[C@H]2C[C@H](N)C2)c1-c1cc(Nc2cnc(C#N)cn2)n[nH]1, the IC50 was 100 to 500 nM. N#Cc1cnc(Nc2cc(-c3cnccc3O[C@H]3CC[C@H](N)CC3)[nH]n2)cn1 was tested, and the IC50 was > 1000 nM. For COc1nc(C)cc(O[C@H]2CCCC[C@H]2N)c1-c1cc(Nc2cnc(C#N)cn2)n[nH]1, the IC50 was 100 to 500 nM. For N#Cc1cnc(Nc2cc(-c3cnccc3O[C@H]3C[C@H](N)C3)[nH]n2)cn1, the IC50 was > 1000 nM. With COc1nc(C(C)C)cc(O[C@@H]2CC[C@H](N)C2)c1-c1cc(Nc2cnc(C#N)cn2)n[nH]1 the IC50 was > 1000 nM. With COc1cc(C)nc(O[C@@H]2CC[C@H](N)C2)c1-c1cc(Nc2cnc(C#N)cn2)n[nH]1 the IC50 was < 50 nM. For COc1nc(C)cc(O[C@@H]2CC[C@H]2N)c1-c1cc(Nc2cnc(C#N)cn2)n[nH]1, the IC50 was < 50 nM. In the case of COc1nc(CO)cc(O[C@@H]2CC[C@H](N)C2)c1-c1cc(Nc2cnc(C#N)cn2)n[nH]1, the IC50 is reported as 50 to 100 nM. Work on COc1nccc(O[C@H]2C[C@H](N)C2)c1-c1cc(Nc2cnc(C(N)=O)cn2)n[nH]1 yielded an IC50 of 100 to 500 nM. With CN[C@H]1CC[C@H](Oc2nccc(OC)c2-c2cc(Nc3cnc(C#N)cn3)n[nH]2)C1 the IC50 was < 50 nM. For CN[C@H]1CC[C@H](Oc2ccnc(OC)c2-c2cc(Nc3cnc(C#N)cn3)n[nH]2)CC1, the IC50 was < 50 nM. Cc1cc(O[C@@H]2CC[C@H](N)C2)c(-c2cc(Nc3cnc(C#N)cn3)n[nH]2)c(O)n1 was tested, and the IC50 was > 1000 nM. For COc1nc(C)cc(O[C@@H]2CCCC[C@H](N)C2)c1-c1cc(Nc2cnc(C#N)cn2)n[nH]1, the IC50 was < 50 nM. In the case of COc1nc(CC(C)C)cc(O[C@@H]2CC[C@H](N)C2)c1-c1cc(Nc2cnc(C#N)cn2)n[nH]1, the IC50 is reported as < 50 nM. In the case of COc1ccnc(O[C@@H]2CC[C@H](N)C2)c1-c1cc(Nc2cnc(C#N)cn2)n[nH]1, the IC50 is reported as < 50 nM. In the case of COc1nc(C)cc(O[C@@H]2CC[C@H](N(C)C)C2)c1-c1cc(Nc2cnc(C#N)cn2)n[nH]1, the IC50 is reported as < 50 nM. COc1nc(C2(C)CC2)cc(O[C@@H]2CC[C@H](N)C2)c1-c1cc(Nc2cnc(C#N)cn2)n[nH]1 was tested, and the IC50 was < 50 nM. In the case of CN[C@H]1CC[C@@H](Oc2ccnc(OC)c2-c2cc(Nc3cnc(C#N)cn3)n[nH]2)C1, the IC50 is reported as < 50 nM. CN[C@@H]1CC[C@@H](Oc2nccc(OC)c2-c2cc(Nc3cnc(C#N)cn3)n[nH]2)C1 showed an IC50 of 100 to 500 nM. In the case of COc1nc(C)cc(O[C@@H]2CC[C@@H]2N)c1-c1cc(Nc2cnc(C#N)cn2)n[nH]1, the IC50 is reported as 500 to 1000 nM. For “5-((5-(4-(((1R,3S)-3-aminocyclopentyl)oxy)pyridin-3-yl)-1H-pyrazol-3-yl)amino)pyrazine-2-carbonitrile”, the IC50 was > 1000 nM. “5-((5-(4-(((1R,3R)-3-aminocyclopentyl)oxy)pyridin-3-yl)-1H-pyrazol-3-yl)amino)pyrazine-2-carbonitrile” was tested, and the IC50 was > 1000 nM. CN[C@@H]1CC[C@@H](Oc2cc(C3CC3)nc(OC)c2-c2cc(Nc3cnc(C#N)cn3)n[nH]2)C1 was tested, and the IC50 was < 50 nM. COc1nc(C(F)F)cc(O[C@@H]2CC[C@H](N)C2)c1-c1cc(Nc2cnc(C#N)cn2)n[nH]1 was tested, and the IC50 was < 50 nM. With COc1nc(C)cc(O[C@H]2CC[C@@H]2N)c1-c1cc(Nc2cnc(C#N)cn2)n[nH]1 the IC50 was < 50 nM. For COc1nc(C)cc(O[C@H]2CCCC[C@H](N)C2)c1-c1cc(Nc2cnc(C#N)cn2)n[nH]1, the IC50 was < 50 nM. COc1nc(C)cc(O[C@H]2CC[C@H]2N)c1-c1cc(Nc2cnc(C#N)cn2)n[nH]1 was tested, and the IC50 was < 50 nM. For COc1nc(C2CC2)cc(O[C@H]2CCCC[C@@H](N)C2)c1-c1cc(Nc2cnc(C#N)cn2)n[nH]1, the IC50 was < 50 nM. With CN[C@H]1C[C@H](Oc2ccnc(OC)c2-c2cc(Nc3cnc(C#N)cn3)n[nH]2)C1 the IC50 was < 50 nM. COc1ccnc(O[C@H]2C[C@H](N)C2)c1-c1cc(Nc2cnc(C#N)cn2)n[nH]1 gave an IC50 of 50 to 100 nM. COc1nccc(O[C@H]2C[C@H](N)C2)c1-c1cc(Nc2cnc(C#N)cn2)n[nH]1 showed an IC50 of 50 to 100 nM. COc1nc(C)cc(O[C@H]2CC[C@H](N)CC2)c1-c1cc(Nc2cnc(C#N)cn2)n[nH]1 was tested, and the IC50 was 50 to 100 nM. Molecule COc1nccc(O[C@H]2CC[C@H](N)CC2)c1-c1cc(Nc2cnc(C#N)cn2)n[nH]1 has an IC50 of 50 to 100 nM. Cc1ncc(O[C@@H]2CC[C@H](N)C2)c(-c2cc(Nc3cnc(C#N)cn3)n[nH]2)n1 was tested, and the IC50 was 100 to 500 nM. For COc1nc(C2CCC2)cc(O[C@@H]2CC[C@H](N)C2)c1-c1cc(Nc2cnc(C#N)cn2)n[nH]1, the IC50 was < 50 nM. COc1cncc(O[C@H]2CC[C@H](N)CC2)c1-c1cc(Nc2cnc(C#N)cn2)n[nH]1 gave an IC50 of 100 to 500 nM. With COc1nc(C)cc(O[C@@H]2CC[C@H](N)C2)c1-c1cc(Nc2ccc(C#N)nc2)n[nH]1 the IC50 was 100 to 500 nM. For COc1cc(C)nc(O[C@@H]2CC[C@@H](N)C2)c1-c1cc(Nc2cnc(C#N)cn2)n[nH]1, the IC50 was > 1000 nM. COc1nc(C2CC2)cc(O[C@H]2CC[C@@H]2N)c1-c1cc(Nc2cnc(C#N)cn2)n[nH]1 was tested, and the IC50 was < 50 nM. With COc1nc(C)cc(O[C@@H]2CCCC[C@@H]2N)c1-c1cc(Nc2cnc(C#N)cn2)n[nH]1 the IC50 was 100 to 500 nM. With COc1cc(C)nc(O[C@@H]2CC[C@@H](N(C)C)C2)c1-c1cc(Nc2cnc(C#N)cn2)n[nH]1 the IC50 was 50 to 100 nM. COc1nc(C)cc(O[C@@H]2CC[C@@H](N(C)C)C2)c1-c1cc(Nc2cnc(C#N)cn2)n[nH]1 gave an IC50 of 50 to 100 nM.

Reference: patent US20260382603A1, “CHECKPOINT KINASE 1 (CHK1) INHIBITORS COMBINATIONS AND USES THEREOF” (published 2026)
